Source: patent publication US20090275085A1, “Enzyme for Obtaining Prebiotic Oligosaccharides” (CONSEJO SUPERIOR DE INVESTIGACIONES CIENTIFICAS, priority 2004, published 2009)

Tested on: maltose
Assay: purified protein, by the assay type
Conditions: other: 30 minutes, 100 ng of enzyme; starch supplied by Avebe, 8100 Da

X. dendrorhous α-glucosidase (purified enzyme) (Phaffia rhodozyma)
Km: 2710 µM
kcat: 7.67 s⁻¹
kcat/Km: 2830 M⁻¹ s⁻¹
